Assay results from PMC2862725 (Molecular cancer therapeutics, 2009).

Tests used:
[1] = test system: phosphorylated-ERK1/2 (pERK) in LN229-wild-type EGFR tumors; parameters: species or system athymic swiss mice (nu/nu); conditions: mouse, in vivo
[2] = test system: phosphorylated-ERK1/2 (pERK) in LN229-EGFRvIII mutant tumors; parameters: species or system athymic swiss mice (nu/nu); conditions: mouse, in vivo
[3] = vIII mutant tumor group
[4] = wild-type tumor group
[5] = 30 mg/kg/d PO × 15 days, mean (% CV)
[6] = 55 mg/kg/d PO × 15 days, mean (% CV)

Structure (SMILES): COc1cc2ncnc(Nc3ccc(F)c(Cl)c3)c2cc1OCCCN1CCOCC1 [gefitinib, Gefitinib]
- Kout(0) (baseline rate constant for degradation and dephosphorylation of pERK) [1]: 6.4 (7.3) h^−1
- Ktr (rate constant from pEGFR to pERK compartment) [1]: 2.2 (20.0) h^−1
- r (arbitrary constant for reduction of Kout) [1]: 0.0006 (30.5)
- Kout(0) (baseline rate constant for degradation and dephosphorylation of pERK) [2]: 6.7 (9.6) h^−1
- Ktr (rate constant from pEGFR to pERK compartment) [2]: 1.4 (24.7) h^−1
- r (arbitrary constant for reduction of Kout) [2]: 0.0005 (42.8)
- difference in observed plasma and tumor area under the concentration-time curves between Day 1 and Day 15 [3]: less than 16%
- K(12) inter-compartmental rate constant [3, 5]: 0.74 (8.3) h^−1
- K(21) inter-compartmental rate constant [3, 5]: 0.50 (7.2) h^−1
- difference in observed plasma and tumor area under the concentration-time curves between Day 1 and Day 15 [4]: less than 16%
- K(12) inter-compartmental rate constant [4, 6]: 1.65 (6.7) h^−1
- K(21) inter-compartmental rate constant [4, 6]: 0.55 (6.3) h^−1

Where two headings read alike, the source gives them in different places.
